US6875581 (GENOPIA BIOMEDICAL, dated 2005)

Molecular target: recombinant calcineurin-A/B heterodimer (isoform not given) (human)
Experiment: laser fluorescence correlation spectroscopy (FCS); 10 nM Fluophos-RII-peptide in solution, calcineurin added

Kd: 600 nM
B1: RII-Fluophos (peptide)
peptide: DLDVPIPGRFDRRVSVAAE
modifications: Ser-15 coupled with fluorescein-phosphoamidit (phosphoester with fluorescein at Ser-15)
notes: Synthetic peptide; It was not converted by calcineurin; also called Fluophos-RII-peptide; fluorescent labeled RII-peptide
